This is an account of results in patent US12617776B2, “Stable salt and crystal forms of 2-[3-({1-[2-(dimethylamino)ethyl]-2-(2,2-dimethylpropyl)-1H-1,3-benzodiazol-5-yl}sulfonyl)azetidin-1-yl]ethan-1-ol” (priority 2020, dated 2026).

“Also recorded” adds a separate entry of the source. Counter-ions that a name gives are not always drawn. Like-named read-outs stand apart in the source and are kept apart here.

The conditions of series [1]: for XRPD: interconversion (competitive) slurry of Pattern 2 in THF.
For series [2] the following is noted: water activity experiment.
The conditions of series [3]: 7 days.
The conditions of series [4]: temperature cycled. How it is done:
The aliquot volumes were typically 25-100 μL.
From the infrared (IR) transmission data of the sample vials, dissolution and precipitation events were recorded as the point of complete transmission of IR and the onset of turbidity by IR respectively.
Samples were held at ambient temperature for 18 hours to maximize the chance of precipitation. Any recoverable solids were analyzed by XRPD.

The nature of series [5]: Thermal stability by TG/DTA. The settings on record: 10° C./minute under nitrogen. In kind it is physicochemical.
The conditions of series [6]: 7 days at 25° C./60% RH, 40° C./75% RH and 70° C./75% RH.
Experiment in series [7]: not given
The source holds these as a separate data set.

The mark [8] stands for this setting: 5° C., seeds Patterns 1, 2, 3 and 4, sample TW-0012E-019-01.
Where [9] appears, read: 25° C., seeds Patterns 1, 2, 3 and 4, sample TW-0012E-019-02.
The mark [10] stands for this setting: 50° C., seeds Patterns 1, 2, 3 and 4, sample TW-0012E-019-03.
Setting [11] is: EtOH/water (68/32), Aw 0.8, seeds Patterns 1, 2, 3 and 4, sample TW-0012E-020-04.
The mark [12] stands for this setting: EtOH/water (86/14), Aw 0.6, seeds Patterns 1, 2, 3 and 4, sample TW-0012E-020-03.
The mark [13] stands for this setting: EtOH/water (97/3), Aw 0.2, seeds Patterns 1, 2, 3 and 4, sample TW-0012E-020-01.

Regarding `CN(C)CCn1c(CC(C)(C)C)nc2cc(S(=O)(=O)C3CN(CCO)C3)ccc21` [AAT-730 HCl salt Pattern 2], in series [1] (THF (anhydrous solvent), seeded with Patterns 1, 2, 3 and 4, 5 to 50° C., up to 10 days), the “thermodynamic stability in interconversion slurries” value is listed as “most stable form; also recorded: stable form”. Also, the XRPD result in series [1] (setting [8]) is listed as “Pattern 2”; in series [1] (setting [9]), “Pattern 2”; in series [1] (setting [10]), “Pattern 2”; in series [2] (setting [11]) it was “Pattern 1”; in series [2] (setting [12]), “Pattern 1”; in series [2] (setting [13]), “Pattern 2”. In addition, the XRPD entry was “Pattern 2” in series [3] (HCl salt input Pattern 2, 25° C./60% RH, sample TW0012E-021-01); “Pattern 2” in series [3] (HCl salt input Pattern 2, 40° C./75% RH, sample TW0012E-021-02); “Pattern 2” in series [3] (HCl salt input Pattern 2, 70° C./75% RH, sample TW0012E-021-03).

For `CN(C)CCn1c(CC(C)(C)C)nc2cc(S(=O)(=O)C3CN(CCO)C3)ccc21` [AAT-730 HCl salt, HCl salt of 2-[3-({1-[2-(dimethylamino)ethyl]-2-(2,2-dimethylpropyl)-1H-1,3-benzodiazol-5-yl}sulfonyl)azetidin-1-yl]ethan-1-ol], the T dissolution in series [4] (THF/water (13/1, Aw at most 0.9)) is 38 °C; in series [4] (methanol) it was 40 °C. In series [5], the “remains thermally stable up to” value was “up to 220 °C”. Also, the “XRPD analysis of post-stressed samples (physical form)” value in series [6] was “No change in physical form”. For the same compound, the XRPD entry is reported as “Pattern 2” in series [1] (setting [8]); “Pattern 2” in series [1] (setting [9]); “Pattern 2” in series [1] (setting [10]); “Pattern 1” in series [2] (setting [11]); “Pattern 1” in series [2] (setting [12]); “Pattern 2” in series [2] (setting [13]). The XRPD result in series [7] (HCl salt, crash precipitation, water, anti-solvent ACN, sample TW-0012E-009-02) was “Amorphous”; in series [7] (HCl salt, crash precipitation, water, anti-solvent IPA, sample TW-0012E-009-05) it was “Pattern 3”; in series [7] (HCl salt, crash precipitation, water, anti-solvent MeOH, sample TW-0012E-009-04), “Pattern 4”; in series [7] (HCl salt, crash precipitation, water, anti-solvent THF, sample TW-0012E-009-06) it was “Amorphous”; in series [7] (HCl salt, slow cooling, MeOH, sample TW-0012E-016-01) it was “Pattern 1”; in series [7] (HCl salt, slow cooling, THF/water (13/1, Aw at most 0.9), sample TW-0012E-016-03) it was “Pattern 1”. In addition, the XRPD result in series [7] (HCl salt, slow evaporation, DMSO/water (80/20, Aw at most 0.27), sample TW-0012E-008-02) is “Pattern 3 + 2”; in series [7] (HCl salt, slow evaporation, EtOH/water (50/50), sample TW-0012E-008-03), “Pattern 4”; in series [7] (HCl salt, slow evaporation, water, sample TW-0012E-008-01), “amorphous”; in series [7] (HCl salt, sonication of paste, ACN, sample TW-0012E-010-02) it was “Pattern 2”; in series [7] (HCl salt, sonication of paste, DCM, sample TW-0012E-010-03), “Pattern 2”; in series [7] (HCl salt, sonication of paste, EtOH, sample TW-0012E-010-04), “Pattern 2”. Further, the XRPD entry in series [7] (HCl salt, sonication of paste, MeOH, sample TW-0012E-010-08) was “Pattern 1”; in series [7] (HCl salt, sonication of paste, THF, sample TW-0012E-010-05), “Pattern 2”; in series [7] (HCl salt, sonication of paste, acetone, sample TW-0012E-010-01), “Pattern 2”; in series [7] (HCl salt, sonication of paste, acetone/water (20/1, Aw at most 0.6), sample TW-0012E-010-07) it was “Pattern 1”; in series [7] (HCl salt, temperature cycling, 1-Butanol, sample TW-0012E-015-01), “Pattern 2”; in series [7] (HCl salt, temperature cycling, ACN, sample TW-0012E-003-02) it was “Pattern 1”. The XRPD result in series [7] (HCl salt, temperature cycling, DIPE, sample TW-0012E-015-03) was “Pattern 2”; in series [7] (HCl salt, temperature cycling, DMAc, sample TW-0012E-015-04), “Pattern 2”; in series [7] (HCl salt, temperature cycling, Dioxane, sample TW-0012E-015-09) it was “Pattern 2”; in series [7] (HCl salt, temperature cycling, EtOH, sample TW-0012E-003-04) it was “Pattern 1”; in series [7] (HCl salt, temperature cycling, EtOH/water (50/50), sample TW-0012E-003-08), “Pattern 1”; in series [7] (HCl salt, temperature cycling, IPA, sample TW-0012E-015-08) it was “Pattern 2”. The XRPD result in series [7] (HCl salt, temperature cycling, MEK, sample TW-0012E-015-05) is “Pattern 2”; in series [7] (HCl salt, temperature cycling, MIBK, sample TW-0012E-015-06) it was “Pattern 2”; in series [7] (HCl salt, temperature cycling, THF, sample TW-0012E-003-05), “Pattern 1”; in series [7] (HCl salt, temperature cycling, THF/water (13/1, Aw at most 0.9), sample TW-0012E-003-07), “Pattern 1”; in series [7] (HCl salt, temperature cycling, acetone, sample TW-0012E-003-01), “Pattern 1”; in series [7] (HCl salt, temperature cycling, acetone/water (20/1, Aw at most 0.6), sample TW-0012E-003-06) it was “Pattern 1”. The XRPD entry in series [7] (HCl salt, temperature cycling, cyclohexane, sample TW-0012E-015-02) is “Pattern 2”; in series [7] (HCl salt, temperature cycling, heptane, sample TW-0012E-015-12), “Pattern 2”; in series [7] (HCl salt, temperature cycling, i-PrOAc, sample TW-0012E-015-10), “Pattern 2”; in series [7] (HCl salt, temperature cycling, toluene, sample TW-0012E-015-11), “Pattern 2”; in series [7] (salt formation in THF, input Lot No. 33-13, sample TW0012E-002-01), “Pattern 1”; in series [7] (salt formation in THF, input amorphous, sample TW0012E-001-01) it was “Pattern 1”. For the same compound, the “result of heating and quenching” value runs as follows: (heated to 200° C. under N2, immersed in ice/water bath) “degraded”; (heated up to 180° C. under N2, immersed in ice/water bath) “degraded”.

`CN(C)CCn1c(CC(C)(C)C)nc2cc(S(=O)(=O)C3CN(CCO)C3)ccc21` [AAT-730, 2-[3-({1-[2-(dimethylamino)ethyl]-2-(2,2-dimethylpropyl)-1H-1,3-benzodiazol-5-yl}sulfonyl)azetidin-1-yl]ethan-1-ol]: in series [5], the “remains thermally stable up to” value is “up to 250 °C”.
